Source: patent US11311622B2, “Development of masked therapeutic antibodies to limit off-target effects” (CITY OF HOPE, priority 2010, dated 2022)

B1: Masked 425: sEGFRdIII (S460P/G461N) mask, MMP-9 cleavable linker, scFv 425, FLAG and H6 tags; SEQ ID NO:6 (protein)
chain: MRPSGTAGAALLALLAALCPASRARKVCNGIGIGEFKDSLSINATNIKHFKNCTSISGDLHILPVAFRGDSFTHTPPLDPQELDILKTVKEITGFLLIAAWPENRTDLHAFENLEIIRGRTKMEGQFSLAVVSLNITSLGLRSLKEISDGDVIISGNKNLCYANTINWKKLFGTSGQKTKIISNRGENSCKATGQVCHALCSPEGCWGPEPKDCVSCRNVSRGRECCSRGGGSGGGSGGGSVPLSLYSGSTSGSGKSSEGSGSGAQGELVMTQSPAIMSASPGEKVTMTCSASSSVTYMYWYQQKPGSSPRLLIYDTSNLASGVPVRFSGSGSGTSYSLTISRMEAEDAATYYCQQWSSHIFTFGSGTKLEIKGGGGSGGGGSGGGGSQVQLVESGAELVKPGASVKLSCKASGYTFTSHWMHWVKQRAGQGLEWIGEFNPSNGRTNYNEKFKSKATLTVDKSSSTAYMQLSSLTSEDSAVYYCASRDYDYDGRYFDYWGQGTTLTVSDYKDDDDKTGHHHHHH
B2: wildtype H4Fc: H4Fc mask with the wildtype (cleavable) MMP9 cleavage site in the linker (protein)
chain: CHQLCARGHCWGPGPTQCVNCSQFLRGQECVEECRVLQGLPREYVNARHCLPCHPECQPQNGSVTCFGPEADQCVACAHYKDPPFCVARCPSGVKPDLSYMPIWKFPDEEGACQPCPINCGSRSGGTSGGGSVPLSLYSGSTSGSGKSSEGSGQAS
modifications: left off: a dimerising Fc or GST
notes: H4Fc mask with the wildtype (cleavable) MMP9 cleavage site in the linker

What was measured:
[1] = test system: HaCaT cells that express EGFR; test: Flow cytometry binding to HaCaT cells (anti-FLAG detection); format: cell-based; settings: before vs after MMP-9
SKBR3 cells = test: FACS: H4Fc inhibition of Alexa 488 labeled Trastuzumab binding to SKBR3 cells; format: cell-based; settings: MMP9 overnight at 37° C.
Experimental: Alexa 488 labeled Trastuzumab was incubated with either H4Fc's at a 1:1 or 1:2 ratio for 20 min at room temperature, and then MMP9 was added for incubated an overnight incubation at 37° C. The mixtures were then applied to trypsinized SKBR3 cell suspensions for 1 hr, washed thoroughly, and subjected to FACS analysis.

[2] = test system: Fab portion of Trastuzumab; test: SPR of H4Fc binding to Fab portion of Trastuzumab immobilized on CM5 chip

Molecule	dependence of HaCaT cell binding on MMP-9 digestion [1]	effect of MMP9 addition on Trastuzumab binding to cells (SKBR3 cells)	ka [2] [M⁻¹ s⁻¹]	kd [2] [s⁻¹]
B1	little dependence on MMP-9 digestion; also recorded: does not exhibit an MMP-9 dependent increase in binding			
B2		restored some binding of the mAb to cells	13770	0.0008641

Entries after “also recorded” stand apart in the source; their conditions may differ.
